# Assay results: ChEMBL document CHEMBL2401719, “The development of a new class of inhibitors for betaine-homocysteine S-methyltransferase” (Eur J Med Chem, 2013)
# pIC50: −log10 of the molar value.
# Biological target: T1, Betaine--homocysteine S-methyltransferase 1 (Homo sapiens, UniProt Q93088)
# T1 sequence (Q93088 whole entry): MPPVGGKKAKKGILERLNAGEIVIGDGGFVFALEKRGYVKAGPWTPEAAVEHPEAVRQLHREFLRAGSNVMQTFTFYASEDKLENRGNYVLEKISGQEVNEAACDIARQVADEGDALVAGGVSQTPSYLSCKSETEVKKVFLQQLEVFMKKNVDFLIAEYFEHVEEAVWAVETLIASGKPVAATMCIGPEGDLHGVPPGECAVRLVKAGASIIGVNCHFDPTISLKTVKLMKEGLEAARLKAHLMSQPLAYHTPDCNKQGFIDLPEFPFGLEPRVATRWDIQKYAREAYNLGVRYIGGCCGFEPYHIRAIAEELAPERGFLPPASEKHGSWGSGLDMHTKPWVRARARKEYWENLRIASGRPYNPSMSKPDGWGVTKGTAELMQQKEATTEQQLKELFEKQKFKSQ
# Assay: Inhibition of human recombinant BHMT using N-methyl-[14C]-betaine/D,L-homocysteine as substrate after 30 mins by scintiillation counting analysis
# Method in brief: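 Human recombinant BHMT assayed in pH 7.5 buffer with 2 mM betaine and 1 mM D,L-homocysteine. Each IC50 data point was run in duplicate. IC50 values came from three separate assays and are given ± SEM, n = 3.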
smiles,measurement,value
NC(CCSCCCCC(=O)O)C(=O)O (racemic),pIC50,7.03
